Laboratory results from PubChem BioAssay AID602396 (The Scripps Research Institute Molecular Screening Center, 2012).
Only a part is listed here, and it is no random draw. Activity calls are given as the source filed them.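 The calls were made as follows: active = inhibition above the mean inhibition of all tested compounds plus 3 SD (cut at about 73% in these data); inactive = the rest.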

Amino acid sequences for entries named in this document (tags omitted).
UniProt O00482, whole entry: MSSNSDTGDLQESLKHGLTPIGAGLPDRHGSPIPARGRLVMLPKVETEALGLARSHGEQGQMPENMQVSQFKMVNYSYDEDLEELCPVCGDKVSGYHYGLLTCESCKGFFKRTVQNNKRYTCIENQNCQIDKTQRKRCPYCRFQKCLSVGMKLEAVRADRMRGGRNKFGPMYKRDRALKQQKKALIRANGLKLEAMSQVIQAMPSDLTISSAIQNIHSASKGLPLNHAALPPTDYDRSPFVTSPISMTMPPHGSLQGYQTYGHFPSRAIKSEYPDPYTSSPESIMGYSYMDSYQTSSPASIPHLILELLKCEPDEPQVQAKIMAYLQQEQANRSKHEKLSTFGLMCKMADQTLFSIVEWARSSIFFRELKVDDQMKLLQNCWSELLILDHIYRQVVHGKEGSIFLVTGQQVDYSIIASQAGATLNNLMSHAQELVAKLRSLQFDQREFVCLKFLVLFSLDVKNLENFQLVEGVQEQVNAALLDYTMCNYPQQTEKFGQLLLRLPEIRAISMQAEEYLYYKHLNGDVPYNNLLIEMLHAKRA

molecular target: Nuclear receptor subfamily 5 group A member 2 (Homo sapiens) (UniProt O00482); assay: LRH-1 (NR5A2) inverse agonists, primary screen, cell-based, luminescence, HEK293T, StAR-luciferase reporter (AID 602396); details: LRH-1 transfected, 24 h, at 3.6 µM, hits give high values;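 also: 0% = DMSO wells and 100% = reporter-only cells lacking LRH-1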

| SMILES | inhibition |
| --- | --- |
| Cc1cc(C)cc(OP(C)(N)=O)c1 (stereo not drawn) | inactive: 2.39% |
| COc1ccccc1OP(C)(=O)Nc1cc(Cl)ccc1C (stereo not drawn) | inactive: 6.64% |
| COc1ccc(OP(C)(=O)Nc2cccc(F)c2)cc1 (stereo not drawn) | inactive: -17.9% |
| COc1ccccc1OP(C)(=O)Nc1ccc(C)cc1 (stereo not drawn) | inactive: 7.94% |
| Cc1ccc(NP(C)(=O)Oc2ccccc2)c(C)c1 (stereo not drawn) | inactive: -6.62% |
| CCOC(=O)c1ccc(NP(C)(=O)Oc2ccccc2)cc1 (stereo not drawn) | inactive: -7.99% |
| O=[N+]([O-])c1ccc2c(c1)C=Nc1ccccc1O2 | inactive: 13.8% |
| CC(C)(C)c1ccc(OP(C)(=O)Nc2ccc(SC(F)(F)F)cc2)cc1 (stereo not drawn) | inactive: 12.2% |
| Cc1cccc(C)c1OP(C)(N)=O (stereo not drawn) | inactive: 0.02% |
| O=[N+]([O-])c1cc([N+](=O)[O-])c(Nc2cccnc2)c([N+](=O)[O-])c1 | inactive: -1.71% |
| COc1ccccc1-c1ccccn1.O=[N+]([O-])c1cc([N+](=O)[O-])c(O)c([N+](=O)[O-])c1 | inactive: 6.5% |
| CCN(CC)CCCOC(=O)C(O)(c1ccccc1)c1ccccc1 | inactive: 10.6% |
| CP(=O)(Nc1ccccn1)Oc1ccc(Cl)cc1 (stereo not drawn) | inactive: 9.72% |
| CCOC(=O)c1ccc(NP(C)(=O)Oc2ccc(OC)cc2)cc1 (stereo not drawn) | inactive: 9.69% |
| O=[N+]([O-])c1cc([N+](=O)[O-])c(O)c([N+](=O)[O-])c1.c1ccc(Oc2ccncc2)cc1 | inactive: -1.83% |
| CCOP(C)(=S)SCC(=O)NC(C)C(=O)O (stereo not drawn) | inactive: 21% |
| CP(=O)(NC(=O)Nc1ccccc1)Oc1ccccc1 (stereo not drawn) | inactive: 35.3% |
| CCc1ccc(OP(C)(=O)N2CCN(c3ccc([N+](=O)[O-])cc3)CC2)cc1 (stereo not drawn) | inactive: 17.4% |
| Cc1cc(C)cc(OP(C)(=O)Nc2ccc(SC(F)(F)F)cc2)c1 (stereo not drawn) | inactive: 17.9% |
| Cc1ccc(Nc2c([N+](=O)[O-])cc([N+](=O)[O-])cc2[N+](=O)[O-])cc1 | inactive: 22.7% |
| Cc1cccc(C)c1OP(C)(=O)Nc1ccc(SC(F)(F)F)cc1 (stereo not drawn) | inactive: -45.8% |
| CP(=O)(Nc1ccc(SC(F)(F)F)cc1)Oc1ccc(Cl)cc1 (stereo not drawn) | inactive: 0.65% |
| CP(=O)(Oc1ccccc1)OC(c1ccccc1)C(F)(F)F (stereo not drawn) | inactive: -17.8% |
| CP(=O)(Nc1ccccc1Br)Oc1ccccc1 (stereo not drawn) | inactive: 12.7% |
| COc1ccccc1OP(C)(=O)Nc1ccccc1 (stereo not drawn) | inactive: 5.85% |
| CP(=S)(Nn1cnnc1)Oc1ccccc1 (stereo not drawn) | inactive: -1.74% |
| COc1ccc(-c2ccccn2)cc1.O=[N+]([O-])c1cc([N+](=O)[O-])c(O)c([N+](=O)[O-])c1 | inactive: -29.8% |

| SMILES | inhibition |
| --- | --- |
| CCCOc1ccc(NP(C)(=O)Oc2ccc(Cl)cc2)cc1 (stereo not drawn) | inactive: 1.84% |
| CP(=O)(Nc1ccc(SC(F)(F)F)cc1)Oc1ccccc1 (stereo not drawn) | inactive: 7.37% |
| COc1ccccc1OP(C)(=O)Nc1c(C)cccc1C (stereo not drawn) | inactive: -6.16% |
| CN1CCCCC1COC(=O)C1(O)c2ccccc2CCc2ccccc21 (stereo not drawn) | inactive: 7.49% |
| CC1=C2N=C(C=C3N=C(C(C)=C4[N-][C@@](C)([C@@H]5N=C1[C@](C)(CCC(=O)NC[C@@H](C)OP(=O)([O-])O[C@H]1[C@@H](O)[C@@H](n6cnc7cc(C)c(C)cc76)O[C@@H]1CO)[C@H]5CC(N)=O)[C@@](C)(CC(N)=O)[C@@H]4CCC(N)=O)[C@@](C)(CC(N)=O)[C@@H]3CCC(N)=O)C(C)(C)[C@@H]2CCC(N)=O.[C-]#N.[Co+3] | inactive: 6.39% |
| O=[N+]([O-])c1cc([N+](=O)[O-])c(Nc2nnnn2CCO)c([N+](=O)[O-])c1 | inactive: -3.95% |
| CCOC(=O)C(CC)C1=NC(C)(C)Cc2ccccc21.O=[N+]([O-])c1cc([N+](=O)[O-])c(O)c([N+](=O)[O-])c1 (stereo not drawn) | inactive: -10.5% |
| Cc1nc2ccc3ccccc3c2s1.O=[N+]([O-])c1cc([N+](=O)[O-])c(O)c([N+](=O)[O-])c1 | inactive: -5.73% |
| O=[N+]([O-])c1cc([N+](=O)[O-])c(-c2cnn(-c3ccccc3)c2)c([N+](=O)[O-])c1 | inactive: 49.3% |
| CN(Cc1cccnc1)C(=O)COc1ccc(Cl)c(Cl)c1.O=[N+]([O-])c1cc([N+](=O)[O-])c(O)c([N+](=O)[O-])c1 | inactive: -25.4% |
| O=[N+]([O-])c1cc([N+](=O)[O-])c(-n2nnc3ccccc32)c([N+](=O)[O-])c1 | inactive: 4.35% |
| Cc1ccc(C)c(NP(C)(=O)Oc2ccccc2)c1 (stereo not drawn) | inactive: 13.7% |
| Cc1cc(C)cc(OP(C)(=O)Nc2ccccn2)c1 (stereo not drawn) | inactive: 5.76% |
| CP(=O)(Nc1cccc(Br)c1)Oc1ccccc1 (stereo not drawn) | inactive: 16% |
| CCOC(=O)c1ccc(NP(C)(=O)Oc2cc(C)cc(C)c2)cc1 (stereo not drawn) | inactive: -14.6% |
| Cc1cc(C)cc(OP(C)(=O)Nc2ccc(C)cc2C)c1 (stereo not drawn) | inactive: -23.3% |
| COc1ccccc1OP(C)(=O)Nc1cccc(Br)c1 (stereo not drawn) | inactive: -14.5% |
| CC1=NCCc2c1[nH]c1ccccc21.O=[N+]([O-])c1cc([N+](=O)[O-])c(O)c([N+](=O)[O-])c1 | inactive: -19.6% |
| O=C(O)c1cccc(Nc2c([N+](=O)[O-])cc([N+](=O)[O-])cc2[N+](=O)[O-])c1 | inactive: -4.02% |
| CP(=O)(Nc1ccccc1)Oc1ccc(F)cc1 (stereo not drawn) | inactive: -0.16% |
| O=[N+]([O-])c1cc([N+](=O)[O-])c(OC2CCCCC2O)c([N+](=O)[O-])c1 (stereo not drawn) | inactive: -24.7% |
| CCCCCOc1ccc(NP(C)(=O)Oc2ccc(Cl)cc2Cl)cc1 (stereo not drawn) | inactive: 1.68% |
| Cc1c([N+](=O)[O-])cc([N+](=O)[O-])c(Br)c1[N+](=O)[O-] | inactive: -21% |
| CCN(CC)CCCOC(=O)C(O)(c1ccccc1)C1CCCCC1 (stereo not drawn) | inactive: 3.62% |
| CCOC(=O)c1ccc(NP(C)(=O)Oc2ccc(F)cc2)cc1 (stereo not drawn) | inactive: 3.02% |
| COc1ccc(OP(C)(=O)Nc2ccc(SC(F)(F)F)cc2)cc1 (stereo not drawn) | inactive: -10.9% |
